Laboratory results: patent US20080070240A2, “COMPOSITION FOR DEAMINATING DNA AND METHOD OF DETECTING METHYLATED DNA” (Toyo Boseki Kabushiki Kaisha, priority 2004, published 2008)

Assay: Measurement of solubility of sulfites in distilled water
Conditions: for Concentration, Measured value (sulfite concentration, solubility): method 0-A
Experimental: To a cuvette for measuring absorbance (1×1×4 cm, manufactured by Hitachi High-Technologies Co.), 3 ml of 0.1 N hydrochloric acid (manufactured by Wako Pure Chemical Co., Ltd.) was added. To the cuvette, 30 μl of a sulfite solution diluted with distilled water was added, the cuvette was covered with parafilm, and inverted 3 times to mix the solutions.
Then, the mass, volume and pH at that time were measured. In addition, with regard to each solution, the sulfite concentration was measured in accordance with the method 0-A described above.
With regard to the concentration in the table, the calculated value represents the sulfite concentration (M (mol/l)) calculated from the mass and the molecular weight of each dissolved sulfite. In addition, the measured value represents the sulfite concentration (M) measured in accordance with the method 0-A described above.

O=S([O-])[O-].[Na+].[Na+] [Sodium sulfite, sodium sulfite]
Concentration, Measured value (sulfite concentration, solubility) (30° C.): 1.5 M
solubility (70° C., distilled water, saturated): 260 mg/mL
Concentration, Measured value (sulfite concentration, solubility) (70° C.): 2.1 M
